From patent publication US7186726B2

Chains of the proteins cited; added tags and fusions are not shown. Lines headed by an entry give the natural chain unless they say otherwise; changes in a name come on top. Residues count along the entry.
UniProt Q02294, whole entry: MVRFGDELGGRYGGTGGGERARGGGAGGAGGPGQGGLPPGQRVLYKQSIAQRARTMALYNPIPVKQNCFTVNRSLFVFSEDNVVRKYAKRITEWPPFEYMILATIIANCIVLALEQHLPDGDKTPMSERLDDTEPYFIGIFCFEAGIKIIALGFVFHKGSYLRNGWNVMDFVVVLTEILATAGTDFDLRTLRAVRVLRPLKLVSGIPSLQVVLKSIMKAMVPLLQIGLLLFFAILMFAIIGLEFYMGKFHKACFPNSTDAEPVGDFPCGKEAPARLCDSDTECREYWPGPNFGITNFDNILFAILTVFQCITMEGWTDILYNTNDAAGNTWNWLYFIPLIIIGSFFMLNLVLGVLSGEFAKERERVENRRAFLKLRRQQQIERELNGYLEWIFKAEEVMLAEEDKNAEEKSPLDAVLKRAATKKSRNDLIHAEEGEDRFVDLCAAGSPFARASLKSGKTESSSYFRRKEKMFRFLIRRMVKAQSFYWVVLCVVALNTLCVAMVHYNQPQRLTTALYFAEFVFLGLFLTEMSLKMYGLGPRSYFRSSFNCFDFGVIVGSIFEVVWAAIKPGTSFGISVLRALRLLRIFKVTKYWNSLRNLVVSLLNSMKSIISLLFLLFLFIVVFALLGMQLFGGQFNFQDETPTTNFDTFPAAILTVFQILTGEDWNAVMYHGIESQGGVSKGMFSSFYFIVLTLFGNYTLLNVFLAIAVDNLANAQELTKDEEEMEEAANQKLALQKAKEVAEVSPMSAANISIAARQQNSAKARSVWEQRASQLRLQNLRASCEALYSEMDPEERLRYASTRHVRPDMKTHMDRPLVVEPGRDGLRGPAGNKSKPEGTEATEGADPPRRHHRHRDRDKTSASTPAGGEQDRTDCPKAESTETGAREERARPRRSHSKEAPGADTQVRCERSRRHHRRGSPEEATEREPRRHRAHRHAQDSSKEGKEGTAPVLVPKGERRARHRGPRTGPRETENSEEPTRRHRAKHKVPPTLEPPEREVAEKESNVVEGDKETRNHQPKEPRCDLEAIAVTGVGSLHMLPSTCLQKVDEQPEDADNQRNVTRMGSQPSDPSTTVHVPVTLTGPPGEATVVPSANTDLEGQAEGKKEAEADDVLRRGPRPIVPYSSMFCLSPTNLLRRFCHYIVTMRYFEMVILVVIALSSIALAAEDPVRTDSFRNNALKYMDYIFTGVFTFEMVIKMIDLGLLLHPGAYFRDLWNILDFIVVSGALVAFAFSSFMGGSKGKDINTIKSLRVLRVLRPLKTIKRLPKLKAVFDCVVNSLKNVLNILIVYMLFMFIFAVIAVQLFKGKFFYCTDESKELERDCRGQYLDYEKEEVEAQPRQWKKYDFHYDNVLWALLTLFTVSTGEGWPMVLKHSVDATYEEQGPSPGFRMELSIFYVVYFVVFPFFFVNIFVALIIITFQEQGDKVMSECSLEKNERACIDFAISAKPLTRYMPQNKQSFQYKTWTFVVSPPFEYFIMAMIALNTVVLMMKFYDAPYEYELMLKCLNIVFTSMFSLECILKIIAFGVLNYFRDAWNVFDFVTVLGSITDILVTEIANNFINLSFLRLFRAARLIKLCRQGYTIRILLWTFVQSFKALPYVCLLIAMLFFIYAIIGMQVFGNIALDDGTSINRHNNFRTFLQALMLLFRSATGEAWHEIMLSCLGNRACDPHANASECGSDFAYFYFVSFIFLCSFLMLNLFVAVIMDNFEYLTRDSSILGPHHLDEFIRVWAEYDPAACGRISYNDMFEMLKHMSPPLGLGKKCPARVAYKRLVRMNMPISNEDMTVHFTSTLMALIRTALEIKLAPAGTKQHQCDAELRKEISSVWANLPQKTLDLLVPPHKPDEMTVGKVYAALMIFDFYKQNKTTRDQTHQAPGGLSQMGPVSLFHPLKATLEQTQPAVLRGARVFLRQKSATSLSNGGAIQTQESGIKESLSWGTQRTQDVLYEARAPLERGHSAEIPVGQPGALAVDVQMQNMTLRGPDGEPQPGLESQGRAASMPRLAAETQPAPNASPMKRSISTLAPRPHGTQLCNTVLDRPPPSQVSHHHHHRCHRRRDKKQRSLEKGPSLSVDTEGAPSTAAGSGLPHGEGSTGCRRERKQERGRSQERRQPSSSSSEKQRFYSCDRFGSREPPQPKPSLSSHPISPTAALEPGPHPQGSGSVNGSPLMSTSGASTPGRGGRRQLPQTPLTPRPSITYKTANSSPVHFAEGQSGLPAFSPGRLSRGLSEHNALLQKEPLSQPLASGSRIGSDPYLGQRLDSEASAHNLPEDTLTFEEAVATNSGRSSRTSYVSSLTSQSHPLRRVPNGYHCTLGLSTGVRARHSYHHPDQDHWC
UniProt O43497, whole entry: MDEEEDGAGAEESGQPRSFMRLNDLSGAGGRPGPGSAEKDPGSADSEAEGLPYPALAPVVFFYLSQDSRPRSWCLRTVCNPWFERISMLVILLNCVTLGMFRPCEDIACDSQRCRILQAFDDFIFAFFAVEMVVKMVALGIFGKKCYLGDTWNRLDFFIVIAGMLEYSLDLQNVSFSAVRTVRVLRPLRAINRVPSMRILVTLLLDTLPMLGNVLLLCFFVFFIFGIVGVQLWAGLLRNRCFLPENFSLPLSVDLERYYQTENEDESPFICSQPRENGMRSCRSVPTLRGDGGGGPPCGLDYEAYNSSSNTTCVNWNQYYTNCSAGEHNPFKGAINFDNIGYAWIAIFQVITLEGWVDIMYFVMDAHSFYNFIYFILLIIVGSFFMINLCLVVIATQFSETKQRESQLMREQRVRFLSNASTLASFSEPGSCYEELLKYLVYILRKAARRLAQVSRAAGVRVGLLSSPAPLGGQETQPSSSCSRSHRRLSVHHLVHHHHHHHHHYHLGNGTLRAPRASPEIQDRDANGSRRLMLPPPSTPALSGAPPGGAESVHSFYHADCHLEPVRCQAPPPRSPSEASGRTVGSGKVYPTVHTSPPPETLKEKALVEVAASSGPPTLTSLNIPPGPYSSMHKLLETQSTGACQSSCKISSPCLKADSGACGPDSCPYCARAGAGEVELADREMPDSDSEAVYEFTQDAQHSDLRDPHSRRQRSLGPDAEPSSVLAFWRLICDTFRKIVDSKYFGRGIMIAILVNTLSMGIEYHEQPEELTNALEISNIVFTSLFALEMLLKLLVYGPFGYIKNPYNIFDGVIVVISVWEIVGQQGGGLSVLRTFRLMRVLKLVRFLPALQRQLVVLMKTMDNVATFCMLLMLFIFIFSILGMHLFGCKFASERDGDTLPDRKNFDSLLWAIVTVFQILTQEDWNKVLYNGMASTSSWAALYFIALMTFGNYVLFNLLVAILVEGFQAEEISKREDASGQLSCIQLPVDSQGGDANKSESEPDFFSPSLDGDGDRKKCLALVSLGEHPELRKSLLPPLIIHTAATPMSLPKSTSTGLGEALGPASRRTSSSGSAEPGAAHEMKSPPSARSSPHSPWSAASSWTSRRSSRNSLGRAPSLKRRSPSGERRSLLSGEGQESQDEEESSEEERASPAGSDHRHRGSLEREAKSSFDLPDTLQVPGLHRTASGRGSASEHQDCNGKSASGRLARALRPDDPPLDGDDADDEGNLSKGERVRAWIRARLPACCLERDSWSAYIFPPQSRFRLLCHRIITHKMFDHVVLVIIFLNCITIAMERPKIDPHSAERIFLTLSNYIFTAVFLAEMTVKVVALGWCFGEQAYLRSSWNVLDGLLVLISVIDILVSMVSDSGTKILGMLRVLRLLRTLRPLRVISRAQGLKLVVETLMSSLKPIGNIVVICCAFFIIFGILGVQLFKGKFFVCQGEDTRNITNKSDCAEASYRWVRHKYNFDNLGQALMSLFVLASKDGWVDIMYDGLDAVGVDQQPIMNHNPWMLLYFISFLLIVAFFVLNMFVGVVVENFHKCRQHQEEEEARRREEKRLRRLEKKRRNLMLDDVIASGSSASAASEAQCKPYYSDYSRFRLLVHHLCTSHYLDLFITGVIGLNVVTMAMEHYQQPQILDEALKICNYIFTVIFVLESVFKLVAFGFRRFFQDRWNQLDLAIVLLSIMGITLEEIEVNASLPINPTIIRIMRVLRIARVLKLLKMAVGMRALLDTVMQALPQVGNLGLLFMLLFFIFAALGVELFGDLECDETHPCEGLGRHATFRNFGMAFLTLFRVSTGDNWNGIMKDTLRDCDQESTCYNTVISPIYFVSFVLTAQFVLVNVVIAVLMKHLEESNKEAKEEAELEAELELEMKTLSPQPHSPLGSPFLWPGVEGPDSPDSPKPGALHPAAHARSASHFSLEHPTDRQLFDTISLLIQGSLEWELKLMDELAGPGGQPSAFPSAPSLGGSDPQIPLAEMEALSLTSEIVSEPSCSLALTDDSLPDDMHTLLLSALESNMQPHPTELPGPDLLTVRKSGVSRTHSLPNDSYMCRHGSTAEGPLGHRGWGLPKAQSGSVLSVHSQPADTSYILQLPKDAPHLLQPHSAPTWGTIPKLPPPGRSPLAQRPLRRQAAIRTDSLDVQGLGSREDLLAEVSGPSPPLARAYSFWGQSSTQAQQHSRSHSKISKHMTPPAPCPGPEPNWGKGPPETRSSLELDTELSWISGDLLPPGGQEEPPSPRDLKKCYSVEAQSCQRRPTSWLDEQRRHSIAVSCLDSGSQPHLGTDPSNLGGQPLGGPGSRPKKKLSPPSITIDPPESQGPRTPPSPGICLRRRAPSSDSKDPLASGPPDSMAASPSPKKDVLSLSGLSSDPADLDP
UniProt P54290, 25-944 partner limits assumed: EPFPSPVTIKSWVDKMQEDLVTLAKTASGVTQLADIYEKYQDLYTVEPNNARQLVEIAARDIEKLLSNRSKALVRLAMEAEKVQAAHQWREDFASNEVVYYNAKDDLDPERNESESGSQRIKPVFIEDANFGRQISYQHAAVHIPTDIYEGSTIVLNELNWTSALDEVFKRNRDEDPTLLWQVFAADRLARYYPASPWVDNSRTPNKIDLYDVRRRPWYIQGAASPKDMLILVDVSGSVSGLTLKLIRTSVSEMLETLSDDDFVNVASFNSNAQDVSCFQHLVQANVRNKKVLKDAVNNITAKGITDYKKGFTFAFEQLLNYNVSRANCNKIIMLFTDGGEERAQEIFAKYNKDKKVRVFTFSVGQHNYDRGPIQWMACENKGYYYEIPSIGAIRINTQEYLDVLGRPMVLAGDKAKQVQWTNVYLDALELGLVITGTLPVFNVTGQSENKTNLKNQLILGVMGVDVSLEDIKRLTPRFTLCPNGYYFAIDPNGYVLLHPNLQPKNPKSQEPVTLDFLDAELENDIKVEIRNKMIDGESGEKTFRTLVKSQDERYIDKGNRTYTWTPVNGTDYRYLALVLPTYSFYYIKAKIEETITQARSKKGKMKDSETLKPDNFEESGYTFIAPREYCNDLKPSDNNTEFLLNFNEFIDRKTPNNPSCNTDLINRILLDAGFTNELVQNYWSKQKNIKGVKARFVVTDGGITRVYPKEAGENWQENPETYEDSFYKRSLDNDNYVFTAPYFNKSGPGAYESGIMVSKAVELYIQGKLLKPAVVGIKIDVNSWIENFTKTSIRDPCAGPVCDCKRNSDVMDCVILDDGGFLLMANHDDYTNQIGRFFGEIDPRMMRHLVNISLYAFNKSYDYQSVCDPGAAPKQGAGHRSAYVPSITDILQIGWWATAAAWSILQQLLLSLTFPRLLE
UniProt P54290, 945-1091 partner limits assumed: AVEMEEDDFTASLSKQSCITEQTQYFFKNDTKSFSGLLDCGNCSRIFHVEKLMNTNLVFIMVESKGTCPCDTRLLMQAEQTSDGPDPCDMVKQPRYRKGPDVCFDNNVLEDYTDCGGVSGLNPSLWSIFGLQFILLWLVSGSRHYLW
UniProt P54283, whole entry partner: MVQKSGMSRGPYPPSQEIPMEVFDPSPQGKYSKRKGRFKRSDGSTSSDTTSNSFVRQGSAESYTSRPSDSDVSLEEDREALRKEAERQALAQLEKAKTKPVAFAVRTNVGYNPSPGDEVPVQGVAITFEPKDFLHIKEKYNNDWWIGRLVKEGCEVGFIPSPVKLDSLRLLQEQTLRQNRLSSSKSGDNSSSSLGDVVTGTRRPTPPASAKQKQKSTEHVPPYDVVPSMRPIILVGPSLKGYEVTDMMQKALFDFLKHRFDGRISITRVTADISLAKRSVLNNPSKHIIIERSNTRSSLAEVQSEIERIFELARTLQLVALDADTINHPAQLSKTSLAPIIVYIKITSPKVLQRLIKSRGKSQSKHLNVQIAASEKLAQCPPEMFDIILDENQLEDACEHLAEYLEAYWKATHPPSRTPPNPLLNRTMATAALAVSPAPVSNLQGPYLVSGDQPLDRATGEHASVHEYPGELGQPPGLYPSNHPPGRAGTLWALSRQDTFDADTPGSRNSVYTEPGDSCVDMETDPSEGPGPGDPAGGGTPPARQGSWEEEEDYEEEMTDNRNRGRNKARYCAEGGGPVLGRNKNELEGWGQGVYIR

What was measured:
[1] = molecular target: rat brain N-type calcium channel (α1B+α2δ+β1b) (Rattus norvegicus, UniProt Q02294); assay: N-type calcium channel blocking activity, whole cell patch clamp in HEK 293 cells; settings: read-out: Block of α1B N-type Channels IC50
[2] = molecular target: human α1G T-type channels (Homo sapiens, UniProt O43497); assay: Block of α1G T-type channels, patch clamp in HEK cell lines; settings: for IC50: read-out: Block of α1G T-type Channels IC50
[3] = molecular target: rat α1B+α2b+β1b channels (N-type channels) (Rattus norvegicus, UniProt Q02294); assay: Selective calcium channel blocking activity, whole cell patch recordings, N-type; settings: for IC50: read-out: N-type IC50, 0.1 Hz, 5 mM Ba2+
[4] = tested on: P/Q-type channels (α1A+α2δ+β1b); assay: Selective calcium channel blocking activity, whole cell patch recordings, P/Q-type; settings: read-out: P/Q-type IC50; 0.1 Hz, 5 mM Ba2+
[5] = tested on: L-type channels (α1C+α2δ+β1b); assay: Selective calcium channel blocking activity, whole cell patch recordings, L-type; settings: read-out: L-type IC50; 0.1 Hz, 5 mM Ba2+

SMILES | IC50 ([1]; 0.067 Hz) [nM] | IC50 ([1]; 0.2 Hz) [nM] | other results
O=C(CC(c1ccccc1)c1ccccc1)N1CCN(CCOc2ccc3c(c2)OCO3)CC1 | 400 | 280 | 
O=C(CC(c1ccccc1)c1ccccc1)N1CCN(c2cccc(Cl)c2Cl)CC1 | 650 | 410 | IC50 ([2]; −100 mV): 905 nM
O=C(CC(c1ccccc1)c1ccccc1)N1CCN(CCOc2ccc(F)cc2)CC1 | 349 | 282 | Block of α1G T-type Channels IC50 ([2]; −100 mV): No effect
O=C(CC(c1ccccc1)c1ccccc1)N1CCN(CCOc2c(F)c(F)cc(F)c2F)CC1 | 313 | 266 | 
CN(C)CCCN1CCN(C(=O)CC(c2ccccc2)c2ccccc2)CC1 | 249 | 159 | IC50 [3]: 214 nM; IC50 [4]: 6450 nM
O=C(CC(c1ccccc1)c1ccccc1)N1CCN(Cc2cccc3ccccc23)CC1 | 263 | 130 | 
CN(C(=O)CN1CCN(C(=O)CC(c2ccccc2)c2ccccc2)CC1)c1ccccc1 | 471 | 295 | 
CCCN(CCC)CCN1CCN(C(=O)CC(c2ccccc2)c2ccccc2)CC1 | 554 | 413 | 
O=C(CC(c1ccccc1)c1ccccc1)N1CCN(C(c2ccc(F)cc2)C2CC2)CC1 (stereo not shown) | 520 | 430 | 
CN1CCCC(CN2CCN(C(=O)CC(c3ccccc3)c3ccccc3)CC2)C1 (stereo not shown) | 500 | 300 | 
Cc1ccc(N2CCN(C(=O)CC(c3ccccc3)c3ccccc3)CC2)cc1C | 370 | 290 | Block of α1G T-type Channels IC50 ([2]; −100 mV): No effect
COc1ccc(OCCN2CCN(C(=O)CC(c3ccccc3)c3ccccc3)CC2)cc1OC | 1090 | 800 | 
COc1cc(C(=O)NCCN2CCN(C(=O)CC(c3ccccc3)c3ccccc3)CC2)cc(OC)c1OC | 421 | 275 | 
O=C(CC(c1ccccc1)c1ccccc1)N1CCN(CCNc2ccccc2)CC1 | 3550 | 601 | Block of α1G T-type Channels IC50 ([2]; −100 mV): No effect
CC(C)(C)c1cc(CN2CCN(C(=O)CC(c3ccccc3)c3ccccc3)CC2)cc(C(C)(C)C)c1O | 387 | 292 | 
CCC(C)N1CCN(C(=O)CC(c2ccccc2)c2ccccc2)CC1 (stereo not shown) | 261 | 217 | 
O=C(CC(c1ccccc1)c1ccccc1)N1CCN(CCOc2ccc(F)cc2F)CC1 | 597 | 398 | 
CCC(CC)N1CCN(C(=O)CC(c2ccccc2)c2ccccc2)CC1 | 534 | 321 | 

SMILES | IC50 ([1]; 0.067 Hz) [nM] | IC50 ([1]; 0.2 Hz) [nM] | other results
C[Si](C)(C)c1ccc(N2CCN(C(=O)CC(c3ccccc3)c3ccccc3)CC2)cc1 | 361 | 298 | 
O=C(CC(c1ccccc1)c1ccccc1)N1CCN(c2cc(Cl)cc(Cl)c2)CC1 | 280 | 180 | IC50 ([2]; −100 mV): 154 nM
CC(c1ccccc1)N1CCN(C(=O)CC(c2ccccc2)c2ccccc2)CC1 (stereo not shown) | 660 | 480 | 
Cc1cc(OCCN2CCN(C(=O)CC(c3ccccc3)c3ccccc3)CC2)c(C)c(C)c1NC(=O)OC(C)(C)C | 450 | 350 | 
CCCCCCCN1CCN(C(=O)CC(c2ccccc2)c2ccccc2)CC1 | 376 | 224 | 
COc1cc(OCCN2CCN(C(=O)CC(c3ccccc3)c3ccccc3)CC2)cc(OC)c1OC | 520 | 360 | 
O=C(CC(c1ccccc1)c1ccccc1)N1CCN(C(c2ccccc2)c2cccs2)CC1 (stereo not shown) | 290 | 150 | 
Cc1cccc(C)c1NC(=O)CN1CCN(C(=O)CC(c2ccccc2)c2ccccc2)CC1 | > 1000 | > 1000 | 
O=C(CC(c1ccccc1)c1ccccc1)N1CCN(C2CCCCCC2)CC1 | 430 | 240 | 
Cc1cc(OCCN2CCN(C(=O)CC(c3ccccc3)c3ccccc3)CC2)c(C)c(C)c1N |  |  | IC50 ([1]; 0.067 Hz, tested form: 2HCl): 670 nM; IC50 ([1]; 0.2 Hz, tested form: 2HCl): 420 nM
O=C(CC(c1ccccc1)c1ccccc1)N1CCN(CCOc2ccc(Cl)cc2Cl)CC1 | 364 | 308 | 
C=CCN(CC=C)CCN1CCN(C(=O)CC(c2ccccc2)c2ccccc2)CC1 | 350 | 288 | 
O=C(CC(c1ccccc1)c1ccccc1)N1CCN(c2nc3ccccc3n2Cc2ccccc2)CC1 | 240 | 180 | IC50 ([2]; −80 mV): 2.2 nM; IC50 ([2]; −100 mV): 8.8 nM
COc1ccc(OCCN2CCN(C(=O)CC(c3ccccc3)c3ccccc3)CC2)cc1 | 183 | 135 | 
O=C(CC(c1ccccc1)c1ccccc1)N1CCN(c2ccc(Cc3ccc(F)cc3)cc2)CC1 | 240 | 320 | 
CN1CCC(CN2CCN(C(=O)CC(c3ccccc3)c3ccccc3)CC2)CC1 | 190 | 130 | IC50 [5]: 30000 nM; selectivity for N-type versus P/Q-type and L-type channels ([3]; FIGS. 2 and 3): selectively block N-type channels; IC50 [3]: 257 nM; IC50 [4]: 2450 nM
CC(C)N1CCN(C(=O)CC(c2ccccc2)c2ccccc2)CC1 | 715 | 371 | 
O=C(CC(c1ccccc1)c1ccccc1)N1CCN(c2ccc(-c3ccccc3)cc2)CC1 | 314 | 174 | 

Read-outs that look alike come from different tables or passages of the source.
